# Membrane permeability of cyclic peptides

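The data file gives no further conditions (lipid, pH, time, direction or concentration), and values from different papers need not be comparable. Other peptides of the study may be missing here. Peptides that the database sets to -10, its floor, are left out.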

PAMPA is the parallel artificial membrane permeability assay, which has no cells and reads passive diffusion. P is given in units of 10^-6 cm/s (from log10 values with two decimals); larger means faster passage.

{"smiles": "CCCCCN1CC(=O)N(C)[C@@H](CC(C)C)C(=O)N[C@@H](CCCC)C(=O)N2CCC[C@@H]2C(=O)N(Cc2ccc3c(c2)OCO3)CC(=O)N[C@H](C)C1=O", "PAMPA (10^-6 cm/s)": "3.5"}
{"smiles": "CCCCCN1CC(=O)N[C@@H](CC(C)C)C(=O)N[C@@H](CCCC)C(=O)N2CCC[C@@H]2C(=O)N(CCCOC(C)C)CC(=O)N[C@H](Cc2ccccc2)C1=O", "PAMPA (10^-6 cm/s)": "6.5"}
{"smiles": "CCCC[C@@H]1NC(=O)[C@H](CC(C)C)N(C)C(=O)CN(CC2CCOCC2)C(=O)[C@@H](Cc2ccccc2)NC(=O)CN(CCCOC(C)C)C(=O)[C@H]2CCCN2C1=O", "PAMPA (10^-6 cm/s)": "0.3"}
{"smiles": "CCCC[C@@H]1NC(=O)[C@H](CC(C)C)NC(=O)CN(CC2CCCCC2)C(=O)[C@H](Cc2ccccc2)NC(=O)CN(CCCOC(C)C)C(=O)[C@@H]2CCCN2C1=O", "PAMPA (10^-6 cm/s)": "13"}
{"smiles": "CCCC[C@@H]1NC(=O)[C@@H](CC(C)C)NC(=O)CN(CC2CCCCC2)C(=O)[C@H](C)NC(=O)CN(CCCOC(C)C)C(=O)[C@@H]2CCCN2C1=O", "PAMPA (10^-6 cm/s)": "5.1"}
{"smiles": "CCCCCN1CC(=O)N(C)[C@@H](CC(C)C)C(=O)N[C@@H](CCCC)C(=O)N2CCC[C@@H]2C(=O)N(CC)CC(=O)N[C@@H](C)C1=O", "PAMPA (10^-6 cm/s)": "4.8"}
{"smiles": "CCCCCN1CC(=O)N[C@H](CC(C)C)C(=O)N[C@@H](CCCC)C(=O)N2CCC[C@H]2C(=O)N(CCCOC(C)C)CC(=O)N[C@@H](C)C1=O", "PAMPA (10^-6 cm/s)": "2.6"}
{"smiles": "CCCCCN1CC(=O)N(C)[C@@H](CC(C)C)C(=O)N[C@@H](CCCC)C(=O)N2CCC[C@@H]2C(=O)N(Cc2ccc3c(c2)OCO3)CC(=O)N[C@@H](C)C1=O", "PAMPA (10^-6 cm/s)": "12"}
{"smiles": "CCCC[C@@H]1NC(=O)[C@H](CC(C)C)N(C)C(=O)CN(CC2CCCCC2)C(=O)[C@H](C)NC(=O)CN(CC)C(=O)[C@H]2CCCN2C1=O", "PAMPA (10^-6 cm/s)": "8.9"}
{"smiles": "CCCC[C@@H]1NC(=O)[C@@H](CC(C)C)NC(=O)CN(CC2CCCCC2)C(=O)[C@H](Cc2ccccc2)NC(=O)CN(Cc2ccc3c(c2)OCO3)C(=O)[C@H]2CCCN2C1=O", "PAMPA (10^-6 cm/s)": "1.3"}
{"smiles": "CCCC[C@@H]1NC(=O)[C@@H](CC(C)C)N(C)C(=O)CN(CC2CCOCC2)C(=O)[C@H](C)NC(=O)CN(CC)C(=O)[C@H]2CCCN2C1=O", "PAMPA (10^-6 cm/s)": "0.25"}
{"smiles": "CCCCCN1CC(=O)N[C@@H](CC(C)C)C(=O)N[C@@H](CCCC)C(=O)N2CCC[C@@H]2C(=O)N(CCCOC(C)C)CC(=O)N[C@@H](Cc2ccccc2)C1=O", "PAMPA (10^-6 cm/s)": "11"}
{"smiles": "CCCC[C@@H]1NC(=O)[C@@H](CC(C)C)N(C)C(=O)CN(CC2CCOCC2)C(=O)[C@H](Cc2ccccc2)NC(=O)CN(CCCOC(C)C)C(=O)[C@H]2CCCN2C1=O", "PAMPA (10^-6 cm/s)": "9.3"}
{"smiles": "CCCC[C@@H]1NC(=O)[C@H](CC(C)C)N(C)C(=O)CN(CC2CCCCC2)C(=O)[C@H](C)NC(=O)CN(Cc2ccc3c(c2)OCO3)C(=O)[C@H]2CCCN2C1=O", "PAMPA (10^-6 cm/s)": "5.6"}

Again, the 2 entries with the lowest PAMPA:

structure (SMILES)	PAMPA (10^-6 cm/s)
CCCC[C@@H]1NC(=O)[C@@H](CC(C)C)N(C)C(=O)CN(CC2CCOCC2)C(=O)[C@H](C)NC(=O)CN(CC)C(=O)[C@H]2CCCN2C1=O	0.25
CCCC[C@@H]1NC(=O)[C@H](CC(C)C)N(C)C(=O)CN(CC2CCOCC2)C(=O)[C@@H](Cc2ccccc2)NC(=O)CN(CCCOC(C)C)C(=O)[C@H]2CCCN2C1=O	0.3

Collected by the curators of CycPeptMPDB (Li et al. 2023) from Furukawa et al. 2016, doi:10.1021/acs.jmedchem.6b01246.